Molecular target: APC/mDia1 complex (SNAP-647-APC-C with SNAP-549-mDia1-C) (UniProt P25054)
Experiment: single-molecule TIRF microscopy colocalisation

Substance: Oregon Green (OG)-actin (from UniProt P68135 1-377) (natural protein)
- percent of APC/mDia1 complexes occupied by LatB-OG-actin: 54.8%

— PMC3613992
